The values that follow come from PubChem BioAssay AID2555 (Johns Hopkins Ion Channel Center, 2010).

This is a selection; strong and weak results do not stand in their true shares. Some of these compounds have results that are not shown, active ones among them. Active and inactive are the calls of the source.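 The calls were made as follows: active = primary screen hit whose calcium fluorescence ratio, in both repeats, exceeds the weak agonist control mean by 3 SD; inactive = the rest.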

The experiment relates to TRPC4 beta (transient receptor potential cation channel C4), mouse. Briefly: potentiation of DAMGO EC20 TRPC4 response – cell-based, Fluo-4, HEK293 TRPC4beta/mu-opioid, confirmation (AID 2555). The conditions noted are these: DAMGO EC20, Fluo-4 calcium flux, at 10 µM. For orientation: Calcium flux is commonly read through the fluorescence of an indicator in the cells.
Turning to `CN(C)c1ccc(C(=O)NCC2(N(C)C)CCCCC2)cc1`, the outcome was inactive.
